Data: US20250222143A1, “TARGETED RADIOTHERANOSTICS BASED ON POLYAZAMACROCYCLIC, MIXED-DONOR SCAFFOLDS LINKED TO A TARGETING VECTOR” (The Research Foundation for the State University of New York, priority 2021, published 2025)

Tested on: PSMA+ (PC-3 PiP) and PSMA-(PC-3 Flu) tumor xenografts
Details: i.v., n = 4

Q: What does the source list for O=C([O-])CN1CCN(CC(=O)[O-])CCN(CC(=O)NCC2CCC(C(=O)N[C@@H](Cc3ccc4ccccc4c3)C(=O)NCCCC[C@H](NC(=O)N[C@@H](CCC(=O)O)C(=O)O)C(=O)O)CC2)CCN(CC(=O)[O-])CC1.[177Lu+3] (stereo partly drawn) [^177Lu-PSMA-617, reference compound]?
A: Tumor− 72 h p.i. (PSMA- PC-3 flu tumor, 72 h p.i.): 0.02 ± 0.01 % ID/g; Blood 72 h p.i. (tumor-bearing mice, Blood, 72 h p.i.): 0.03 ± 0.01 % ID/g; Bone 24 h p.i. (tumor-bearing mice, Bone, 24 h p.i.): 0.07 ± 0.01 % ID/g; Bone 72 h p.i. (tumor-bearing mice, Bone, 72 h p.i.): 0.05 ± 0.01 % ID/g; Heart 24 h p.i. (tumor-bearing mice, Heart, 24 h p.i.): 0.09 ± 0.04 % ID/g; Heart 72 h p.i. (tumor-bearing mice, Heart, 72 h p.i.): 0.03 ± 0.01 % ID/g; Kidney 72 h p.i. (tumor-bearing mice, Kidney, 72 h p.i.): 0.08 ± 0.04 % ID/g; Liver 24 h p.i. (tumor-bearing mice, Liver, 24 h p.i.): 0.08 ± 0.04 % ID/g; Liver 72 h p.i. (tumor-bearing mice, Liver, 72 h p.i.): 0.03 ± 0.00 % ID/g; Muscle 24 h p.i. (tumor-bearing mice, Muscle, 24 h p.i.): 0.04 ± 0.01 % ID/g; Muscle 72 h p.i. (tumor-bearing mice, Muscle, 72 h p.i.): 0.02 ± 0.01 % ID/g; Sm Int 24 h p.i. (tumor-bearing mice, Sm Int, 24 h p.i.): 0.06 ± 0.02 % ID/g; Sm Int 72 h p.i. (tumor-bearing mice, Sm Int, 72 h p.i.): 0.03 ± 0.01 % ID/g; Spleen 24 h p.i. (tumor-bearing mice, Spleen, 24 h p.i.): 0.08 ± 0.03 % ID/g; Spleen 72 h p.i. (tumor-bearing mice, Spleen, 72 h p.i.): 0.04 ± 0.01 % ID/g
